# According to US20140056898A1, “COMBINATION THERAPIES COMPRISING ANTI-ERBB3 AGENTS” (priority 2011, published 2014):
# Entries after “also recorded” stand apart in the source; their conditions may differ.
# Columns and labels:
# Type in all cases: cell-based
# BT474-M3 cells [1] = assay: Apoptosis assay (Annexin V / PI, FACS) in spheroids; settings: 72 hours, MM-111 100 nM, lapatinib 33 nM, Annexin V and PI positive
# Procedure: After overnight incubation, spheroids are treated with inhibitor at concentrations indicated for 72 hours. Spheroids are then trypsinized and combined with floating cells. Cells are washed twice with cold PBS and suspended in binding buffer (0.01 M HEPES, pH 7.4; 0.14 M NaCl; 2.5 mM CaCl2). Cells are then stained with FITC-conjugated Annexin V and PI. Apoptotic cells are quantified on a FACSCalibur™ FACS machine.
# The effect of the MM-111 combination with lapatinib on apoptosis was assessed in a BT474-M3 spheroid model. […] Cells were then stained with Annexin V and propidium iodide (PI) and quantitated using FACS (FIG. 11, Table 2). Cell populations staining positive with Annexin V and PI were quantified as late apoptotic, cell populations staining positive with Annexin V but not PI were quantified as early apoptotic, cell populations staining positive for PI but not Annexin V were quantified as dead cells and populations of cells not stained with either Annexin V or PI were considered alive and not apoptotic (Table 2).
# BT474-M3 cells [2] = assay: Spheroid in vitro tumor model assay, estrogen-stimulated; settings: estrogen-stimulated BT474-M3 spheroids, dose range, six days
# Source text: Cells are continued to culture for six days.
# Multicellular spheroids are used to simulate the growth and microenvironmental conditions of tumors in vitro.
# BT474-M3 cells [3] = assay: Spheroid in vitro tumor model assay, heregulin-stimulated; settings: heregulin-stimulated BT474-M3 spheroids, dose range
# BT474-M3 cells [4] = assay: Spheroid in vitro tumor model assay, dual ligand (estrogen and heregulin)-stimulated; settings: estrogen and heregulin (dual ligand)-stimulated BT474-M3 spheroids, dose range
Molecule,Percent cell population: Late apoptosis (BT474-M3 cells [1]),inhibition of spheroid growth (in words) (BT474-M3 cells [2]),inhibition of spheroid growth (in words) (BT474-M3 cells [3]),inhibition of spheroid growth (in words) (BT474-M3 cells [4]),inhibition of spheroid growth (in words) (BT474-M3 cells [4]; listed as Trastuzumab)
CS(=O)(=O)CCNCc1ccc(-c2ccc3ncnc(Nc4ccc(OCc5cccc(F)c5)c(Cl)c4)c3c2)o1 [lapatinib],14.5%,,,,
trastuzumab,,showed inhibitory effects on spheroid growth,did not inhibit heregulin stimulated spheroid growth,inhibited spheroid growth; also recorded: no significant inhibitory effects,no significant inhibitory effects
